By UniProt entry, the sequences of proteins in these tests, tags left out. Residues count along the entry.
UniProt P24530, 27-442: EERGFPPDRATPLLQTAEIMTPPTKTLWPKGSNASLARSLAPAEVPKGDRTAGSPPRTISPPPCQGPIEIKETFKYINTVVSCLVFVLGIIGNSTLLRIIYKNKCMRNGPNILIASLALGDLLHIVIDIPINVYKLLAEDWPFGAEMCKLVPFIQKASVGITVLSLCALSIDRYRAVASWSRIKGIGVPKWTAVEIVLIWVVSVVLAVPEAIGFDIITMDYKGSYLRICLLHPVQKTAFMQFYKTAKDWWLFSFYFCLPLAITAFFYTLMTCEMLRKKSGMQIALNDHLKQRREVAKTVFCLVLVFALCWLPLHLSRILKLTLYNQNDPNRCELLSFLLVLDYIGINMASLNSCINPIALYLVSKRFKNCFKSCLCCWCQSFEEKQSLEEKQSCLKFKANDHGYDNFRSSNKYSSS

In patent US11331299B2, “Medicinal use of serrulatane diterpenes” (The University of Sydney, priority 2016, dated 2022):

Target: receptors (Bioprint panel) (Homo sapiens, UniProt P24530)
Settings: read-out: Reference Compound IC50; […] (h) (agonist radioligand)

## endothelin-3
  IC50: 0.017 nM
